Results on one substance are retold here after patent publication US9249087B2, “HDAC inhibitors and therapeutic methods using the same” (THE BOARD OF TRUSTEES OF THE UNIVERSITY OF ILLINOIS, priority 2011, dated 2016).

Chains of the proteins cited; added tags and fusions are not shown. Lines headed by an entry give the natural chain unless they say otherwise; changes in a name come on top.
UniProt Q9UBN7: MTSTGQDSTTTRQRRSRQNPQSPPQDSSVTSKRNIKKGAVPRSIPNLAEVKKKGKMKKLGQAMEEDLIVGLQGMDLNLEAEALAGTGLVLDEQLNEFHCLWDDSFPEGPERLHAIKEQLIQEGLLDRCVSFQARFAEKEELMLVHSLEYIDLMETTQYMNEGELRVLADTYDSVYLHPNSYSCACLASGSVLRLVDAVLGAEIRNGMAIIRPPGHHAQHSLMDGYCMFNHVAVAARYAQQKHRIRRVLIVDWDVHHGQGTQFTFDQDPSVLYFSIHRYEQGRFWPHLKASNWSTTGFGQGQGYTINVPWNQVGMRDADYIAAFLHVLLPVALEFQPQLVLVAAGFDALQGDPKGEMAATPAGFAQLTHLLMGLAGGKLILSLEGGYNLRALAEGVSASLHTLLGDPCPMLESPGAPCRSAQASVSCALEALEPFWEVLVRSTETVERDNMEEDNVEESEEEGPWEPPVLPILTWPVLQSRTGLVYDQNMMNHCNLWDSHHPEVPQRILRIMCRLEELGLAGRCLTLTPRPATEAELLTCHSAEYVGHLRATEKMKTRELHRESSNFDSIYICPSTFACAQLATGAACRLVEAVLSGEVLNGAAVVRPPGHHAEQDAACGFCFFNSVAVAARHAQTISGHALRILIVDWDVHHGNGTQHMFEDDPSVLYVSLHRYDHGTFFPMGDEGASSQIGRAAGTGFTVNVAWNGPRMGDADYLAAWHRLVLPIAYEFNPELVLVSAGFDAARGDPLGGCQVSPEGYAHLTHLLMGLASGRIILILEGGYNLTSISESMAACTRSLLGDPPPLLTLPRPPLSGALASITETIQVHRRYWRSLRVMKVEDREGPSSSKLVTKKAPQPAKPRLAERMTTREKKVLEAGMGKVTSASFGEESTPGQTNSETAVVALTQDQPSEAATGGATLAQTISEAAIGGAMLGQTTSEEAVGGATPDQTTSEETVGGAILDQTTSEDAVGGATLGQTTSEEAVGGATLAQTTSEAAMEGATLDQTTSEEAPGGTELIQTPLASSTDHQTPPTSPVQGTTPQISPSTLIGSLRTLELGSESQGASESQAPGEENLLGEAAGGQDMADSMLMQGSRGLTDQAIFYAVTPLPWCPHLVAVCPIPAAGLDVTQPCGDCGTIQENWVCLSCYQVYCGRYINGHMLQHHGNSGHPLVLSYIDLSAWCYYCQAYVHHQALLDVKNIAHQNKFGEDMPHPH

Assay [1] deals with T1, Human HDAC6 (Homo sapiens (Human), UniProt Q9UBN7). To be noted: original assay lacking detergent (Triton X100); cited from earlier work.
The target of assay [2] is T1, Human HDAC6. Put plainly: HDAC6 fluorogenic peptide deacetylation inhibition assay. It counts as biochemical.

pIC50: −log10 of the molar value.

A word on the pIC50: it is the IC50 on a negative log10 scale, so that one unit is a factor of ten. A higher pIC50 goes with a low IC50.

Take ISOX [reference compound]: in assay [1], the “HDAC6 IC50 previously found” value is “low picomolar”. The substance also gave a pIC50 in assay [2] of 8.62.
